# Experimental data published in ChEMBL document CHEMBL1914282 (J Med Chem, 2011).
# Sequences of proteins named here, by UniProt entry; tags and fusion partners are left off. A change or cut given only in a name is not applied to a line headed by its entry.
# UniProt Q9HC97: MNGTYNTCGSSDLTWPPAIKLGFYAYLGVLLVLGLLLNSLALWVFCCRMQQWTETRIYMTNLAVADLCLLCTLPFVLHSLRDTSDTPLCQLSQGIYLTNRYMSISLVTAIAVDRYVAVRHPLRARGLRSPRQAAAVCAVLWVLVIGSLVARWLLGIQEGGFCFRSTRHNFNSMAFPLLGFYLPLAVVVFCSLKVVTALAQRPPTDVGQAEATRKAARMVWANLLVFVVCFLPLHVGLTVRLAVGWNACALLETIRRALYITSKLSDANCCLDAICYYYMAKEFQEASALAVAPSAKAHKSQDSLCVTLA
# Activity calls are given as the source filed them. The rule behind the calls is not given here.
# Target: G-protein coupled receptor 35 (Homo sapiens, UniProt Q9HC97)
# Assay: Agonist activity at GPR35 in human HT-29 cells assessed as receptor internalization at 10 uM after 1 hr by fluorescence confocal imaging
# Assay type: functional, cell-based
compound,measurement,value
CCOC(=O)c1sc2c(Br)csc2c1C,Activity,inactive
